Values of other authors as cited in publication PMC5843756, “The drug interaction potential of daprodustat when coadministered with pioglitazone, rosuvastatin, or trimethoprim in healthy subjects” (Pharmacology Research & Perspectives, 2018).

Conditions: coadministration of trimethoprim; ref Hruska et al. 2005; cited from earlier work

CN(CCOc1ccc(CC2SC(=O)NC2=O)cc1)c1ccccn1 (stereo not shown) [rosiglitazone]
fold increase in AUC with trimethoprim: 1.31 fold
